Values of other authors, collected in patent US6579853B2, “Brain cell or nerve cell-protective agents comprising ginsenoside Rb1” (Japan Science and Technology Corporation, priority 1998, dated 2003).

Test system: Bcl-xL protein
Conditions: interleukin 3 0.6-15.0 ng/ml; cited from earlier work

B1: interleukin 3 (protein, UniProt P08700 20-152, looked up)
Interleukin-3: APMTQTTPLKTSWVNCSNMIDEIITHLKQPPLPLLDFNNLNGEDQDILMENNLRRPNLEAFNRAVKSLQNASAIESILKNLLPCLPLATAAPTRHPIHIKDGDWNEFRRKLTFYLKTLENAQAQQTTLSLAIF
notes: peptide factor reported to facilitate the expression of Bcl-xL protein in nerve cells
  increase of the expression of Bcl-xL protein: about 10%
